This note sets out measurements from US11268120B2, “Identification of transglutaminase substrates and uses therefor” (Roche Sequencing Solutions, Inc., priority 2014, dated 2022).

The target of the assay is T1, MTG (Streptomyces mobaraensis, UniProt P81453).
T1 construct: purchased Zedira GmbH
T1 sequence (P81453 77-407): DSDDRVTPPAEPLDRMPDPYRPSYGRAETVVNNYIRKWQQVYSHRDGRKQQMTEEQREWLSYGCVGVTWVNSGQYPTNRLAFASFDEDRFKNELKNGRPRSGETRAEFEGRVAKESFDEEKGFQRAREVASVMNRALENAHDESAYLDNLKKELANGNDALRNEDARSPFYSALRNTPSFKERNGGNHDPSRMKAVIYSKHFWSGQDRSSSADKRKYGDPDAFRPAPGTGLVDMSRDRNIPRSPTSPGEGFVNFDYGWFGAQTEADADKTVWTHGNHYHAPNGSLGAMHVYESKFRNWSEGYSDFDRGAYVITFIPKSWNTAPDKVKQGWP
The assay is described as follows: GLDH-coupled continuous assay for MTG activity in solution, Gln-containing substrate peptides. The format is biochemical. Conditions: pH 7.2, 37° C. Here is the method:
FIG. 3 is a plot of MTG activity obtained by measuring rates of NADH oxidation at 340 nm and 37° C. using various concentrations of the di-peptide QG (1-20 mM) and the peptide GGGDYALQGGGG (SEQ ID NO: 86) (0.2-5 mM) in the GLDH-coupled assay. The Michaelis-Menten equation was used to fit hyperbolic curves to the data points, giving Km and Vmax parameters and allowing calculation of turnover number (kcat) and catalytic efficiency (kcat/KM). Improved performance of array selected GGGDYALQGGGG (SEQ ID NO: 86) (open squares) substrate was observed compared to standard QG-substrate (filled squares). ‘Z’ represents a carboxybenzyl protective group. […] The Michaelis-Menten equation was used to fit hyperbolic curves to the data points, giving Km and Vmax parameters as well as allowing calculation of turnover number (kcat) and catalytic efficiency (kcat/KM). […]
It was next determined whether peptides selected in the array assay were also preferred substrates in the solution reaction. […]
The assay was performed in a 96-well microtiter plate in the presence of 10 mM α-ketoglutarate, 10 mM glycine methyl ester as acyl acceptor, 2 U of glutamate dehydrogenase (GLDH), 500 μM NADH (i.e., reduced nicotinamide adenine dinucleotide) and Gln-containing substrate peptide concentrations ranging between 0.2 and 20 mM in 200 mM MOPS (i.e., 3-(N-morpholino)propanesulfonic acid), 1 mM EDTA pH 7.2 (total volume per well 200 μl). The reaction was started by the addition of 0.1 U of MTG (Zedira GmbH) and the oxidation of NADH was continuously recorded against a blank at 340 nm for 20 min using a Biotek Synergy H4 microplate reader thermostated at 37° C. with short shaking intervals before each measurement. After a short lag phase, where the GLDH was saturated by MTG-mediated release of ammonia, linear rates of absorbance versus time, corresponding to MTG turnover, were observed, and subjected to Michaelis-Menten kinetic analysis.

As for Z-QG [reference compound], for the setting “Gln-peptide 0.2-20 mM, 10 mM glycine methyl ester as acyl acceptor”, the Km worked out at 2610 ± 400 µM. Further, the Vmax (Gln-peptide, 0.1 U MTG) was 0.39 ± 0.02 nmol/s. In addition, the kcat (Gln-peptide) amounted to 5.1 s⁻¹.

Usually Km stands for the concentration of substrate that gives half-maximal velocity. One may read the Vmax as the top rate of the reaction or transport when substrate is in excess. In general, kcat refers to the number of substrate molecules converted per active site and unit of time at saturation.
